Measured values as given in US9440982B2 (Eolas Therapeutics, Inc., priority 2012, dated 2016).

The chains behind the UniProt entries cited, without tags or fusion partners.
UniProt O43613, whole entry: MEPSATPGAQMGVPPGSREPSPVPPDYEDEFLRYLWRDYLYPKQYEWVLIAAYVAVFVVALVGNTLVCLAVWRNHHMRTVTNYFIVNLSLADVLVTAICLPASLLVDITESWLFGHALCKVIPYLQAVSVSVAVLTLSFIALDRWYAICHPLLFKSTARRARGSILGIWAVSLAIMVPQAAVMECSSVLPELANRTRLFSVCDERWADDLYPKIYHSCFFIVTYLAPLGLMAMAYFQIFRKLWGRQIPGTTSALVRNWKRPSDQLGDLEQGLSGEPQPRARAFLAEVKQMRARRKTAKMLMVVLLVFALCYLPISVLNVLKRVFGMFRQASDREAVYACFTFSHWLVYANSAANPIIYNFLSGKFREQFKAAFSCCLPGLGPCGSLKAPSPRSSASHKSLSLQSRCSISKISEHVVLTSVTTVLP
UniProt O43614, whole entry: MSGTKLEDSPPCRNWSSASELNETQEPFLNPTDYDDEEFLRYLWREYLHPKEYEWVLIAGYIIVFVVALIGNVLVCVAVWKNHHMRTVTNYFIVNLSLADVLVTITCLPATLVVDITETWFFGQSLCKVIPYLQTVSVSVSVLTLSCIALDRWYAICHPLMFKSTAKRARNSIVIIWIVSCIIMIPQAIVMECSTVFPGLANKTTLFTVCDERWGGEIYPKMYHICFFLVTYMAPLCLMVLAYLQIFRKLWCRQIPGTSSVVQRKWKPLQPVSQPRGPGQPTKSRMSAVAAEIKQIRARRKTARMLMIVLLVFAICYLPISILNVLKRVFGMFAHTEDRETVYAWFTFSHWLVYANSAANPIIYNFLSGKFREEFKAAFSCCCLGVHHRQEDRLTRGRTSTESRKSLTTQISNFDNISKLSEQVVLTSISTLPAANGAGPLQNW

Tests used:
OX1 = molecular target: T1, OX1 (Homo sapiens, UniProt O43613); assay: Orexin receptor cell-based functional assay, [Ca2+]i by FLIPR, CHO-OX1 cells; conditions: Table 2, EC90 of OXA, read-out: IC50 Bioactivity OX1
T1 construct: expressed in transfected cells; host or cells: CHO (CHO-OX1, kept under selection antibiotic)

OX2 = molecular target: T2, OX2 (Homo sapiens, UniProt O43614); assay: Orexin receptor cell-based functional assay, [Ca2+]i by FLIPR, CHO-OX2 cells; conditions: CHO-OX2 cells, EC90 of OXA
T2 construct: expressed in transfected cells; host or cells: CHO (CHO-OX2, kept under selection antibiotic)

[1] = [Ca2+]i by FLIPR, antagonist dose-range 0.1 nM-10 μM, read-out: OX2

SMILES | pIC50 (OX1) | pIC50 (OX2; Table 2, read-out: IC50 Bioactivity OX2) | pIC50 (OX2; [1])
Cc1nc(-c2ccccc2)c(C(=O)N2CC(F)(F)CCC2CNC(=O)c2cccc3cccnc23)s1 (racemic) [Example 34, N-((5,5-Difluoro-1-(2-methyl-4-phenylthiazole-5-carbonyl)piperidin-2-yl)methyl)quinoline-8-carboxamide] | 8.30 | 8.30 | –
Cc1ccc(-c2cnn(C)c2)c(C(=O)N2CC3CCCC3C2CNc2ccc(C(F)(F)F)cn2)c1 (centres unmarked) [Example A71, (5-Methyl-2-(1-methyl-1H-pyrazol-4-yl)phenyl)(1-(((5-(trifluoromethyl)pyridin-2-yl)amino)methyl)hexahydrocyclopenta[c]pyrrol-2(1H)-yl)methanone] | – | – | 5.44
Cc1ccc(NC[C@@H]2[C@H](C)CCCN2C(=O)c2cc(C)ccc2-n2nccn2)nc1 [Example A48, ((2S,3R)-3-Methyl-2-(((5-methylpyridin-2-yl)amino)methyl)piperidin-1-yl)(5-methyl-2-(2H-1,2,3-triazol-2-yl)phenyl)methanone] | – | – | < 5.30

Further lines, results first:

pIC50 (OX1) | pIC50 (OX2; Table 2, read-out: IC50 Bioactivity OX2) | pIC50 (OX2; [1]) | SMILES
– | – | < 5.40 | Cc1ccc(-n2nccn2)c(C(=O)N2CCC[C@@H](C)[C@H]2CNc2cccc(C)n2)c1 [Example A79, ((2S,3R)-3-Methyl-2-(((6-methylpyridin-2-yl)amino)methyl)piperidin-1-yl)(5-methyl-2-(2H-1,2,3-triazol-2-yl)phenyl)methanone]
– | – | < 5.30 | Cc1ccc(-n2nccn2)c(C(=O)N2CCC[C@@H](C)[C@H]2CNc2ccc(C(F)(F)F)nn2)c1 [Example A119, ((2S,3R)-3-Methyl-2-(((6-(trifluoromethyl)pyridazin-3-yl)amino)methyl)piperidin-1-yl)(5-methyl-2-(2H-1,2,3-triazol-2-yl)phenyl)methanone]
– | – | < 5.30 | C[C@@H]1CCCN(C(=O)c2cc(F)ccc2-n2nccn2)[C@@H]1CNc1ccc(Cl)cn1 [Example A209, ((2S,3R)-2-(((5-Chloropyridin-2-yl)amino)methyl)-3-methylpiperidin-1-yl)(5-fluoro-2-(2H-1,2,3-triazol-2-yl)phenyl)methanone]
– | – | 6.23 | Cc1ccc(-n2nccn2)c(C(=O)N2CCC[C@@H](C)[C@H]2CNc2ccc(C3CC3)cn2)c1 [Example A136, ((2S,3R)-2-(((5-Cyclopropylpyridin-2-yl)amino)methyl)-3-methylpiperidin-1-yl)(5-methyl-2-(2H-1,2,3-triazol-2-yl)phenyl)methanone]

pIC50: −log10 of the molar value. Like-named read-outs stand apart in the source and are kept apart here.
